Consider one substance from US7855174B2 (priority 2007, dated 2010).

This is a selection: effects in other tests are not listed, and their absence says nothing.

Broadly, the EC50 is the concentration needed to bring the measured effect to its halfway point.

For sodium nitroprusside, in the test with rat mesenteric arteries (10^−5 mol/L SNP, vessels pre-contracted with NE 3×10^−6 mol/L, n=6), the relaxation is 51.8±5.8%. The EC50 in the test with rat mesenteric arteries (read-out: approximate EC50 in isolated vessels, as restated in Example 3) amounted to 10 µM. The “effect on NE concentration-dependent Ser19 and total pMLC” value with MLC (SNP 10^−5 mol/L or low dose CAL 3×10^−8 mol/L) is “decreases in NE concentration-dependent Ser19 and total pMLC”. Further, the “change of Ser19 pMLC and total pMLC with concentration” value in the test on MLC (agent alone, SNP in vessels pre-contracted with 3×10−6 mol/L NE) was “concentration-dependent decreases in both Ser19 and total pMLC”.
